Results reported in patent publication US9085576B2 (AMGEN INC., priority 2013, dated 2015).

By UniProt entry, the sequences of proteins in these tests, tags left out. Residues count along the entry.
UniProt P56817, 46-501, species assumed: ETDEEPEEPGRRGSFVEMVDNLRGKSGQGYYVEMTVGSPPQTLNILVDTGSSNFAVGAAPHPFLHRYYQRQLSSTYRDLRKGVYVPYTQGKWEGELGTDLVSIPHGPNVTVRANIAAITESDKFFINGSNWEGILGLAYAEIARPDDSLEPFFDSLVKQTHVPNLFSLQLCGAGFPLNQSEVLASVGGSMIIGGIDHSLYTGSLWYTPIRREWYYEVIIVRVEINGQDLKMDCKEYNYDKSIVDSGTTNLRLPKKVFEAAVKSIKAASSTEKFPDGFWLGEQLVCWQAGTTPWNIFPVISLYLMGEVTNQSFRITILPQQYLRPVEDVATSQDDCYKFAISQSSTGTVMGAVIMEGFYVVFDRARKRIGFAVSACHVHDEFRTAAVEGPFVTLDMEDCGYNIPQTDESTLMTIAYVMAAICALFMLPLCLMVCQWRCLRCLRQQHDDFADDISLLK

molecular target: BACE (Homo sapiens (Human), UniProt P56817); assay: In vitro BACE cell-based assay (Aβ40 in conditioned medium, sandwich ELISA); details: read-out: BACE cell assay IC50

Point of comparison: `NC1=N[C@@](c2cc(N[C@@H]3CCc4cc(Br)cnc43)ccc2F)(C(F)F)[C@H]2C[C@H]2O1` (single isomer, unassigned) [Example 380, (1R,5S,6R)-5-(5-(((R)-3-bromo-6,7-dihydro-5H-cyclopenta[b]pyridin-7-yl)amino)-2-fluorophenyl)-5-(difluoromethyl)-2-oxa-4-azabicyclo[4.1.0]hept-3-en-3-amine or (1R,5S,6R)-5-(5-(((S)-3-bromo-6,7-dihydro-5H-cyclopenta[b]pyridin-7-yl)amino)-2-fluorophenyl)-5-(difluoromethyl)-2-oxa-4-azabicyclo[4.1.0]hept-3-en-3-amine], IC50 145 nM. Against it:
- NC1=N[C@@](c2cc(N[C@H]3CCc4cc(Br)cnc43)ccc2F)(C(F)F)[C@H]2C[C@H]2O1 (single isomer, unassigned) [Example 381, (1R,5S,6R)-5-(5-(((S)-3-bromo-6,7-dihydro-5H-cyclopenta[b]pyridin-7-yl)amino)-2-fluorophenyl)-5-(difluoromethyl)-2-oxa-4-azabicyclo[4.1.0]hept-3-en-3-amine or (1R,5S,6R)-5-(5-(((R)-3-bromo-6,7-dihydro-5H-cyclopenta[b]pyridin-7-yl)amino)-2-fluorophenyl)-5-(difluoromethyl)-2-oxa-4-azabicyclo[4.1.0]hept-3-en-3-amine] — 12-fold higher, 1670 nM
- (R)-8-((3-((1R,5S,6R)-3-amino-5-(difluoromethyl)-2-oxa-4-azabicyclo[4.1.0]hept-3-en-5-yl)-4-fluorophenyl)amino)-5,6,7,8-tetrahydroquinoline-3-carbonitrile and (S)-8-((3-((1R,5S,6R)-3-amino-5-(difluoromethyl)-2-oxa-4-azabicyclo[4.1.0]hept-3-en-5-yl)-4-fluorophenyl)amino)-5,6,7,8-tetrahydroquinoline-3-carbonitrile [Example 403] — 4.7-fold higher, 677 nM
- N-(3-((1R,5S,6R)-3- amino-5- (difluoromethyl)-2-oxa- 4-azabicyclo[4.1.0]hept- 3-en-5-yl)-4-fluoro-5- methylphenyl)-4-chloro- 2-(fluoromethyl) benzamide [Example 444] — 4.6-fold lower, 31.3 nM
- NC1=N[C@@](c2cc(N[C@H]3CCCc4cc(Br)cnc43)ccc2F)(C(F)F)[C@H]2C[C@H]2O1 (mixture of isomers) [Example 382, (1R,5S,6R)-5-(5-(((R)-3-bromo-5,6,7,8-tetrahydroquinolin-8-yl)amino)-2-fluorophenyl)-5-(difluoromethyl)-2-oxa-4-azabicyclo[4.1.0]hept-3-en-3-amine and (1R,5S,6R)-5-(5-(((S)-3-bromo-5,6,7,8-tetrahydroquinolin-8-yl)amino)-2-fluorophenyl)-5-(difluoromethyl)-2-oxa-4-azabicyclo[4.1.0]hept-3-en-3-amine] — 6.8-fold higher, 993 nM
- CC#Cc1cncc(-c2cc([C@]3(CF)N=C(N)O[C@H]4C[C@H]43)c(F)cc2CO)c1 [Example 432, (4-(((1S,R),(5R,S),(6S,R))-3-amino-5-(fluoromethyl)-2-oxa-4-azabicyclo[4.1.0]hept-3-en-5-yl)-5-fluoro-2-(5-(prop-1-yn-1-yl)pyridin-3-yl)phenyl)methanol] — 25-fold higher, 3680 nM
- (R)-4-((3-((1R,5S,6R)-3-amino-5-(difluoromethyl)-2-oxa-4-azabicyclo[4.1.0]hept-3-en-5-yl)-4-fluorophenyl)amino)chroman-7-carbonitrile and (S)-4-((3-((1R,5S,6R)-3-amino-5-(difluoromethyl)-2-oxa-4-azabicyclo[4.1.0]hept-3-en-5-yl)-4-fluorophenyl)amino)chroman-7-carbonitrile [Example 383] — 2.4-fold higher, 352 nM
- NC1=N[C@@](c2cc(N[C@H](c3ccc(Cl)cn3)C(F)(F)F)ccc2F)(C(F)F)[C@H]2C[C@H]2O1 (mixture of isomers) [Example 422, (1R,5S,6R)-5-(5-(((R)-1-(5-chloropyridin-2-yl)-2,2,2-trifluoroethyl)amino)-2-fluorophenyl)-5-(difluoromethyl)-2-oxa-4-azabicyclo[4.1.0]hept-3-en-3-amine and (1R,5S,6R)-5-(5-(((S)-1-(5-chloropyridin-2-yl)-2,2,2-trifluoroethyl)amino-2-fluorophenyl)-5-(difluoromethyl)-2-oxa-4-azabicyclo[4.1.0]hept-3-en-3-amine] — 28-fold higher, 4060 nM
- NC1=N[C@@](c2cc(N[C@@H]3CCc4cc(Br)ccc43)ccc2F)(C(F)F)[C@H]2C[C@H]2O1.NC1=N[C@@](c2cc(N[C@H]3CCc4cc(Br)ccc43)ccc2F)(C(F)F)[C@H]2C[C@H]2O1 (mixture of isomers) [Example 384, (1R,5S,6R)-5-(5-(((R)-5-bromo-2,3-dihydro-1H-inden-1-yl)amino)-2-fluorophenyl)-5-(difluoromethyl)-2-oxa-4-azabicyclo[4.1.0]hept-3-en-3-amine and (1R,5S,6R)-5-(5-(((S)-5-bromo-2,3-dihydro-1H-inden-1-yl)amino)-2-fluorophenyl)-5-(difluoromethyl)-2-oxa-4-azabicyclo[4.1.0]hept-3-en-3-amine] — 9.4-fold higher, 1370 nM
- CC#Cc1cncc(-c2ccc(F)c([C@@]3(CF)N=C(N)O[C@@H]4C[C@@H]43)c2)c1 [Example 431, (1(S,R),5(R,S),6(S,R))-5-(2-fluoro-5-(5-(prop-1-yn-1-yl)pyridin-3-yl)phenyl)-5-(fluoromethyl)-2-oxa-4-azabicyclo[4.1.0]hept-3-en-3-amine] — 11-fold higher, 1590 nM
